Test results: US20240131204A1, “Fractionated Dosing of a Phospholipid Ether Analog for the Treatment of Cancer” (Cellectar Biosciences, Inc., priority 2019, published 2024)

Experiment: Clinical trial: single bolus dose (Cohort 4) versus fractionated dose (Cohort 5)
Assay type: in vivo, human
Settings: Cohort 4, single bolus 31.25 mCi/m^2
Experimental: Dosing is based upon body surface area or BSA in millicuries/meter squared (mCi/m^2). Patients either received a single 30 minute infusion of 31.25 mCi/m^2 on day 1 or a 30 minute fractionated infusion dose of 15.625 mCi/m^2 on day 1 and then repeated on day 8.

## ^131I-labeled 18-(p-iodo-phenyl)octadecyl phosphocholine [CLR 131]
  Adverse Events Average Grade: 3.23 ± 0.93
  Adverse Events Median Grade: 3.0
